Measured values as given in US10450549B2, “Aryloxyphenoxypropionate tolerance in turfrgass species and use of AAD1 as a selectable marker” (Dow AgroSciences, LLC, priority 2004, dated 2019).

Tested on: CC(Oc1ccc(Oc2cnc3cc(Cl)ccc3n2)cc1)C(=O)O
Test: purified protein, by the assay type
Details: other: purified AAD1 (v1), 25 mM MOPS pH 6.8, 25° C.

Substance: AAD1 (v1) (Sphingobium herbicidovorans NBRC 16415)
- Km: 125 ± 20 µM
